Where two headings read alike, the source gives them in different places.
Experiments:
[1] = both, C57BL/6, mouse, in vivo, 10 mg/kg
[2] = in vivo; settings: both, C57BL/6, mouse, 10 mg/kg

Cc1ccc(NC(=O)c2ccc(CN3CCN(C)CC3)cc2)cc1Nc1nccc(-c2cccnc2)n1 [imatinib]
bioavailability [1]: 107%
bioavailability [2]: 100%

From PMC6278073 (BMC Pharmacology & Toxicology, 2018)
